Measurements: patent publication US20220380347A1

System: cells without virus infection

**Q.** How did the CC50 turn out when `CC(C)(C)c1ccc(N(C(=O)[C@H]2C[C@@H](O)CN2C#N)C(C(=O)NC2CCCCC2)c2cncc(F)c2)cc1` (single isomer, unassigned) was run?
**A.** 10 to 30 µM
